# Measured values: PubChem BioAssay AID1906 (The Scripps Research Institute Molecular Screening Center, 2009)
# This is a selection; strong and weak results do not stand in their true shares. Active and inactive are the calls of the source.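 The calls were made as follows: active = inhibition above the mean of all tested compounds plus 3 SD, set per screening campaign (cut at about 17% in these data); inactive = the rest.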
# Test system: cathepsin L1 (Fasciola hepatica)
# Assay: CTSL1 protease inhibition, fluke enzyme – biochemical, QFRET, fluorogenic peptide substrate, counter-screen for PFM18AAP inhibitor project, primary screen (AID 1906);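 also: 0% = plate median of test compound wells and 100% = 1 µM Z-Phe-Ala-diazomethylketone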
# Details: recombinant F. hepatica cathepsin L1, Z-Leu-Arg-MCA fluorescence; at 5.96 µM; stronger effect = higher value
row,SMILES,inhibition
1,CC(=O)NC(SC(=S)N(C)C)C(Cl)(Cl)Cl (stereo unspecified),inactive: -2.75%
2,O=[N+]([O-])c1ncn(CCn2cnc([N+](=O)[O-])n2)n1,inactive: 2.56%
3,O=[N+]([O-])c1ccc(O)c(/C=N/Nc2ccc([N+](=O)[O-])cc2[N+](=O)[O-])c1,inactive: -3.21%
4,O=[As](O)(c1ccccc1)c1ccc(O)cc1,inactive: 0.76%
5,Nc1ccc([As](=O)(O)c2ccc([N+](=O)[O-])cc2)cc1,inactive: 2.81%
6,C(Cc1nn[nH]n1)Cc1nn[nH]n1,inactive: -0.43%
7,O=C(OC1CN2CCC1CC2)c1cccc(Cl)c1 (stereo unspecified),inactive: -0.3%
8,CN(C)C1(CNC(=O)c2ccc(Cl)c(S(N)(=O)=O)c2)CCCCC1,inactive: 0.07%
9,O=P(Nc1ccccn1)(c1ccc(Br)cc1)c1ccc(Br)cc1,inactive: -3.69%
10,O=P(Nc1nc2ccccc2s1)(c1ccccc1)c1ccccc1,inactive: 1.06%
11,C[C@H]1OP(=O)(Oc2ccccc2)[C@H](O)[C@H](O)[C@H]1N=[N+]=[N-] (stereo partly specified),inactive: 3.53%
12,O=P(Nc1nccs1)(c1ccccc1)c1ccccc1,inactive: -2.61%
13,CC(C)C(=O)NC(Sc1ccccc1)C(Cl)(Cl)Cl (stereo unspecified),inactive: 1.64%
14,c1nnnn1CCn1cnnn1,inactive: -1.99%
15,CC(=O)c1ccc(N2CC2c2ccncc2)cc1 (stereo unspecified),inactive: -1.62%
16,C[C@@H]1C=CCP(=O)(Oc2ccccc2)O1 (stereo partly specified),inactive: -0.72%
17,C[C@H]1OP(=O)(Oc2ccccc2)C[C@@H]2O[C@@H]21 (stereo partly specified),inactive: -1.63%
18,CC(=O)Nc1ccc([As](=O)(O)O)c(O)c1,inactive: 2.97%
19,CC(=O)Nc1ccc(Oc2c([N+](=O)[O-])cc([N+](=O)[O-])cc2[N+](=O)[O-])cc1,inactive: 3.08%
20,O=P1(Nc2nc3ccc(Cl)cc3s2)COc2ccccc2O1 (stereo unspecified),inactive: -5.2%
21,CCOc1ccc(C2=NCC(CBr)S2)cc1 (stereo unspecified),inactive: 2.67%
22,CC(C)(C)C(=O)NC(Sc1ccccc1)C(Cl)(Cl)Cl (stereo unspecified),inactive: 7.15%
23,COC(=O)c1cc2c(s1)N=C(c1ccccc1)N(C)P2(=O)N1CCOCC1 (stereo unspecified),inactive: -1%
24,CC(=O)NC(SC(=S)N(CC(C)C)CC(C)C)C(Cl)(Cl)Cl (stereo unspecified),inactive: 1.1%
25,Cc1ccc(OP(=O)(Nc2ccccn2)Oc2ccc(C)cc2)cc1,inactive: 0.49%
26,O=C(OC1CN2CCC1CC2)c1ccccc1 (stereo unspecified),inactive: -5.21%

row,SMILES,inhibition
1,CCC(=O)N1C2C3N(C(=O)CC)C1C1N(C(=O)CC)C(C(N1C(=O)CC)N3C(=O)CC)N2C(=O)CC,inactive: 1.29%
2,Cc1ccccc1OP(=O)(Nc1ccccn1)Oc1ccccc1C,inactive: 4.62%
3,CN(C)C(=O)Oc1noc2ccccc12,inactive: 9.9%
4,O=C(NC1CCS(=O)(=O)C1)NP(=S)(Oc1ccccc1)Oc1ccccc1 (stereo unspecified),inactive: -4.66%
5,CCNC(=S)/N=C(\N)N[N+](=O)[O-],inactive: -2.43%
6,c1ccc(-c2nn[nH]n2)c(-c2nn[nH]n2)c1,inactive: -2.54%
7,Cc1ccc(NP(=O)(Oc2cccc(C)c2)Oc2cccc(C)c2)nc1,inactive: -2.37%
8,CCOC(=O)NC(Sc1ccccc1)C(Cl)(Cl)Cl (stereo unspecified),inactive: -2.48%
9,O=[N+]([O-])c1cc([N+](=O)[O-])c(CCN2CCOCC2)c([N+](=O)[O-])c1,inactive: -3.15%
10,CCN(N=Nc1nonc1N)c1nonc1N,inactive: -0.46%
11,O=C(O)c1ccccc1[As](=O)(O)O,inactive: 0.03%
12,CC(=O)Nc1ccc([As](=O)(O)O)cc1,inactive: 0.79%
13,O=P(Nc1nc2ccc(Cl)cc2s1)(c1ccccc1)c1ccccc1,inactive: -2.65%
14,CCOP(=O)(Nc1ccccc1)OCC,inactive: 5.45%
15,Cc1cc(SC(NC(=O)c2ccc(F)cc2)C(Cl)(Cl)Cl)ncn1 (stereo unspecified),inactive: 2.62%
16,CN(C(=O)Cc1ccc(Cl)c(Cl)c1)[C@H]1CCCC[C@@H]1N1CCCC1,inactive: 4.53%
17,Cc1ccc(NP(=O)(Oc2ccccc2F)Oc2ccccc2F)nc1,inactive: -0.25%
18,CC(C)CC(=O)NC(Sc1ccc(Cl)cc1)C(Cl)(Cl)Cl (stereo unspecified),inactive: -0.14%
19,Nc1cc(N)c2nonc2c1[N+](=O)[O-],inactive: 2.82%
20,Oc1ccccc1CNc1ccccn1,inactive: -6.72%
21,Cc1c2non([O-])c-2c(C)[n+](=O)[n+]1[O-],inactive: -1.29%
22,O=C(NC(Sc1ccncn1)C(Cl)(Cl)Cl)c1ccccc1 (stereo unspecified),inactive: 5.08%
23,NC(=O)c1cc([N+](=O)[O-])cc([N+](=O)[O-])c1N,inactive: -2.66%
24,CN(C(=O)Cc1ccc(Cl)c(Cl)c1)[C@H]1CCCC[C@H]1N1CCCC1,inactive: -1.56%
25,Cc1ccc(N/C(=N/P(=O)(N2CCOCC2)N2CCOCC2)N2CCOCC2)cc1,inactive: 3.48%
26,COc1ccccc1OP(=O)(Nc1ccc(C)cn1)Oc1ccccc1OC,inactive: 0.91%

row,SMILES,inhibition
1,Cc1ccc(OP(=O)(Nc2nccs2)Oc2ccc(C)cc2)cc1,inactive: -4.15%
2,Clc1ccc(Cl)c(NC2=NCC(CBr)S2)c1 (stereo unspecified),inactive: -2.03%
3,CN1CCCC(OC(=O)C(c2ccccc2)c2ccccc2)C1 (stereo unspecified),inactive: 1%
4,Nc1ccc([As](=O)(O)c2ccc(N)cc2)cc1,inactive: -0.86%
5,C[N+]1=C2C=CC=CC=C2SC12C([N+](=O)[O-])=CC([N+](=O)[O-])=C[C-]2[N+](=O)[O-] (stereo unspecified),inactive: 3.63%
6,CCN(/C(=N/P(=O)(N1CCOCC1)N1CCOCC1)N1CCOCC1)c1ccc(OC)cc1,inactive: -1.99%
7,CC(C)=N/N=C(\N)N[N+](=O)[O-],inactive: 1.17%
8,CN(C)C(=O)OCCc1n(C)cc[n+]1C,inactive: -0.99%
9,CC1CCN(C(=O)Oc2c(Cl)cc(Cl)c3cccnc23)CC1,inactive: 2.23%
10,COc1ccc(C2=NCC(CBr)S2)cc1 (stereo unspecified),inactive: -2.43%
11,CC(=O)N1C2C3N(C(C)=O)C1C1N(C(C)=O)C(C(N1C(C)=O)N3C(C)=O)N2C(C)=O,inactive: -2.53%
12,O=[N+]([O-])c1cccc2n[nH]nc12,inactive: -1.07%
13,Cc1ccc(NP(=O)(Oc2ccccc2)Oc2ccccc2)nc1,inactive: -6.97%
14,O=[N+]([O-])c1cc([N+](=O)[O-])c(CCNc2ccccc2)c([N+](=O)[O-])c1,inactive: 1.96%
15,CCc1nc2c(n1)c1c(non1O)c1c2no[n+]1[O-],inactive: 2.43%
16,CC(C)(C)C(=O)NC(Sc1ccncn1)C(Cl)(Cl)Cl (stereo unspecified),inactive: 2.4%
17,O=[N+]([O-])c1ncn(CCn2ncnc2[N+](=O)[O-])n1,inactive: 2.39%
18,O=[N+]([O-])c1cccc(NC2=NCC(CBr)S2)c1 (stereo unspecified),inactive: -1.26%
19,O=C(Nc1cc([As](=O)(O)O)ccc1O)c1ccccc1,inactive: 3.91%
20,CCOC(=O)Nc1cccc([As](=O)(O)O)c1,inactive: 1.46%
21,Cc1cc(SC(NC=O)C(Cl)(Cl)Cl)ncn1 (stereo unspecified),inactive: -2.42%
22,O=P(Nc1ccccn1)(c1cccc2ccccc12)c1cccc2ccccc12,inactive: 1.93%
23,CCOC(=O)Nc1ccc([As](=O)(O)O)c(O)c1,inactive: -0.53%
24,Cc1cc(SC(NC(=O)c2ccccc2)C(Cl)(Cl)Cl)nc(C(C)C)n1 (stereo unspecified),inactive: -0.93%
25,CCOC(=O)c1ccc(NC(=O)C(C)(CCl)SC)cc1 (stereo unspecified),inactive: -4.67%
26,O=C(OC1CN2CCC1CC2)c1cccc([N+](=O)[O-])c1 (stereo unspecified),inactive: 0.92%

row,SMILES,inhibition
1,CCC(C)N(CC(C)C)C(=S)SC(NC(C)=O)C(Cl)(Cl)Cl (stereo unspecified),inactive: 8.24%
2,COP1(=S)c2c(C)nn(CCC#N)c2N=C(c2ccc(F)cc2)N1C (stereo unspecified),inactive: 5.13%
3,O=C(COc1ccccc1)OC1CN2CCC1CC2 (stereo unspecified),inactive: 0.89%
4,O=C(Nc1ccncc1[N+](=O)[O-])c1ccc([N+](=O)[O-])cc1[N+](=O)[O-],inactive: 3.59%
5,COc1ccc(N/C(=N/P(=O)(N2CCOCC2)N2CCOCC2)N2CCOCC2)cc1,inactive: 0.78%
6,O=C(OC1CN2CCC1CC2)C12CC3CC(CC(C3)C1)C2 (stereo unspecified),inactive: 1.84%
7,Cc1cc(=O)[nH]c(N[N+](=O)[O-])n1,inactive: 2.35%
8,Cc1c2c(nc3ccccc13)SC(C(Cl)Cl)C2 (stereo unspecified),inactive: 2.04%
9,COc1ccc2nc(NP(=O)(c3ccccc3)c3ccccc3)sc2c1,inactive: -2.42%
10,COc1cc(I)ccc1[As](=O)(O)O,inactive: -0.6%
11,CC(C)c1ccc(OP(=O)(Nc2ccccn2)Oc2ccccc2F)cc1 (stereo unspecified),inactive: 4.3%
12,ClCCSc1nnc(-c2cccnc2)o1,inactive: 10.6%
13,CCN(CC)C(=S)SC(NC=O)C(Cl)(Cl)Cl (stereo unspecified),inactive: 3.68%
14,CC(C)NC(=O)NP(=O)(Oc1ccccc1)Oc1ccccc1,inactive: 5.26%
15,O=[N+]([O-])c1cc([N+](=O)[O-])c(-c2ccn[nH]2)s1,inactive: -1.46%
16,C[As](=O)(O)c1cccc(C(=O)O)c1,inactive: -5.89%
17,O=[As](O)(c1ccc(O)cc1)c1ccccc1O,inactive: -2.45%
18,Cc1ccc2nc3c(c(C)c2c1)CC(C(Cl)Cl)S3 (stereo unspecified),inactive: -3.99%
19,Cc1ccc(OP(=O)(Nc2ccc([N+](=O)[O-])cn2)Oc2ccc(C)cc2)cc1,inactive: -1.54%
20,NC(=O)Nc1ccc([As](=O)(O)O)cc1,inactive: 1.01%
21,CN(C)C(=O)c1cc([N+](=O)[O-])cc2c1-c1c(cc([N+](=O)[O-])cc1[N+](=O)[O-])C2=O,inactive: 8%
22,O=[N+]([O-])c1ccc2c(c1)nnn2O,inactive: 1.31%
23,CN(C(=O)Cc1ccc(Cl)c(Cl)c1)[C@H]1CC[C@@]2(CCCO2)C[C@@H]1N1CCCC1,inactive: 4.29%
